Results reported in patent US4346102A, “3H-Dihydrofuranone-2 derivatives and pharmaceutical use thereof” (Delalande S.A., priority 1979, dated 1982).

Columns and labels:
[1] = tested on: monoamine oxidase type "A"; assay: Test C: inhibiting activity of monoamine oxidase type "A" in rat brain homogenates after oral administration (serotonine as substrate); assay type: in vivo; conditions: 5 mg/kg p.o.
[2] = tested on: monoamine oxidase type "B"; assay: Test C: inhibiting activity of monoamine oxidase type "B" in rat brain homogenates after oral administration (phenylethylamine as substrate); assay type: in vivo; conditions: 5 mg/kg p.o.

O=C(CCNNC(=O)c1ccncc1)NCc1ccccc1 [NIALAMIDE, reference compound]
Activity IMAO "A" (in words, across Max, 8 hrs, 24 hrs) [1]: Inactive | Activity IMAO "B" (in words, across Max, 8 hrs, 24 hrs) [2]: Inactive
